Experimental findings from patent US7074789B2, “Kinase inhibitors” (Amgen Inc., priority 1999, dated 2006) are described below.

Sequences of proteins named here, by UniProt entry; tags and fusion partners are left off. Residues count along the entry.
UniProt P06239, whole entry: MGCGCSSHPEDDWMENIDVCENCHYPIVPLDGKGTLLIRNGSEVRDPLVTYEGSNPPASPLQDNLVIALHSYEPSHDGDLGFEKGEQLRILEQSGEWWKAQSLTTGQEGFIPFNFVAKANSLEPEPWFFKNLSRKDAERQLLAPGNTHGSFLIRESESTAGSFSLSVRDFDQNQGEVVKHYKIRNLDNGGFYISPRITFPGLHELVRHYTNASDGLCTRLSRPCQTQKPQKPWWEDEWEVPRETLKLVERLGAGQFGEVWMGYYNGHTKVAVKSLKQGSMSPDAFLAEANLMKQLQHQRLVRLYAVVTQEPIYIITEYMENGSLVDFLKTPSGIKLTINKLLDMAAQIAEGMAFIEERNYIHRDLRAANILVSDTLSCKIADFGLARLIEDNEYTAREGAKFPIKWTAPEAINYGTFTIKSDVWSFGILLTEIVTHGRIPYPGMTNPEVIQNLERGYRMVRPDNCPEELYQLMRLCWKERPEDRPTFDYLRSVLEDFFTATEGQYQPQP
UniProt P43403, whole entry: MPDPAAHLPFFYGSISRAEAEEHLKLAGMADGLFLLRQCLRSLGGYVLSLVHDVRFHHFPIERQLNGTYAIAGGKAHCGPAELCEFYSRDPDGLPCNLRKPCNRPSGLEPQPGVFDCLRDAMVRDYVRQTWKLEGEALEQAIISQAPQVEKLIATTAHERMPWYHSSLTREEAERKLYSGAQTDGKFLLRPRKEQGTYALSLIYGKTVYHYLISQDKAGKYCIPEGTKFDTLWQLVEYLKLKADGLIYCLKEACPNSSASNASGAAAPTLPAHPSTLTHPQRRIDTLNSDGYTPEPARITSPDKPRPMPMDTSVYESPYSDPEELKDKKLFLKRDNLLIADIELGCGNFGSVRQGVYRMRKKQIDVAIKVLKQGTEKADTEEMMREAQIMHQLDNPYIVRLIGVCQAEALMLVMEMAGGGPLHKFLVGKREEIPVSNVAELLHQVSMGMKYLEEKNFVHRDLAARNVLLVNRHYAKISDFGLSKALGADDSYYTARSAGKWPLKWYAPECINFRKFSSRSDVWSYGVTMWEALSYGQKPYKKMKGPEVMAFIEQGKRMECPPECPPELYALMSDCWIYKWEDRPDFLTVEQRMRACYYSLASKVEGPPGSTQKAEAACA
UniProt Q08881, whole entry: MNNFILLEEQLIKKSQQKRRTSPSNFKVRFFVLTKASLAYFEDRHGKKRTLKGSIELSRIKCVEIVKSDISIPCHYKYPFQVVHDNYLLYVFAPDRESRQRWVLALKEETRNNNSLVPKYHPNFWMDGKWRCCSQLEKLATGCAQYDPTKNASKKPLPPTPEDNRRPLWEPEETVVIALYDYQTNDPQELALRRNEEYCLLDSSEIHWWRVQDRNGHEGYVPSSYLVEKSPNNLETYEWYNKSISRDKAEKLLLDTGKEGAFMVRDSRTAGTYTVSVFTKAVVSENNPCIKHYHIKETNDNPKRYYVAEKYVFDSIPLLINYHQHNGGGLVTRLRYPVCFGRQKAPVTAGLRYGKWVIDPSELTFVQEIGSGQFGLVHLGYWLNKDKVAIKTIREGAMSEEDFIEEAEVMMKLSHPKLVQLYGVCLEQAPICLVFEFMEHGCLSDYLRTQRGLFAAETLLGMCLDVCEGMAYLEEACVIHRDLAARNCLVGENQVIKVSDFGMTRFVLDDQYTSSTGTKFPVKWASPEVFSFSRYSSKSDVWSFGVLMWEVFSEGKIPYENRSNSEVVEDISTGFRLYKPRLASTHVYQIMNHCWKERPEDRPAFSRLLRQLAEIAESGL
UniProt P08581, 25-1390 limits assumed: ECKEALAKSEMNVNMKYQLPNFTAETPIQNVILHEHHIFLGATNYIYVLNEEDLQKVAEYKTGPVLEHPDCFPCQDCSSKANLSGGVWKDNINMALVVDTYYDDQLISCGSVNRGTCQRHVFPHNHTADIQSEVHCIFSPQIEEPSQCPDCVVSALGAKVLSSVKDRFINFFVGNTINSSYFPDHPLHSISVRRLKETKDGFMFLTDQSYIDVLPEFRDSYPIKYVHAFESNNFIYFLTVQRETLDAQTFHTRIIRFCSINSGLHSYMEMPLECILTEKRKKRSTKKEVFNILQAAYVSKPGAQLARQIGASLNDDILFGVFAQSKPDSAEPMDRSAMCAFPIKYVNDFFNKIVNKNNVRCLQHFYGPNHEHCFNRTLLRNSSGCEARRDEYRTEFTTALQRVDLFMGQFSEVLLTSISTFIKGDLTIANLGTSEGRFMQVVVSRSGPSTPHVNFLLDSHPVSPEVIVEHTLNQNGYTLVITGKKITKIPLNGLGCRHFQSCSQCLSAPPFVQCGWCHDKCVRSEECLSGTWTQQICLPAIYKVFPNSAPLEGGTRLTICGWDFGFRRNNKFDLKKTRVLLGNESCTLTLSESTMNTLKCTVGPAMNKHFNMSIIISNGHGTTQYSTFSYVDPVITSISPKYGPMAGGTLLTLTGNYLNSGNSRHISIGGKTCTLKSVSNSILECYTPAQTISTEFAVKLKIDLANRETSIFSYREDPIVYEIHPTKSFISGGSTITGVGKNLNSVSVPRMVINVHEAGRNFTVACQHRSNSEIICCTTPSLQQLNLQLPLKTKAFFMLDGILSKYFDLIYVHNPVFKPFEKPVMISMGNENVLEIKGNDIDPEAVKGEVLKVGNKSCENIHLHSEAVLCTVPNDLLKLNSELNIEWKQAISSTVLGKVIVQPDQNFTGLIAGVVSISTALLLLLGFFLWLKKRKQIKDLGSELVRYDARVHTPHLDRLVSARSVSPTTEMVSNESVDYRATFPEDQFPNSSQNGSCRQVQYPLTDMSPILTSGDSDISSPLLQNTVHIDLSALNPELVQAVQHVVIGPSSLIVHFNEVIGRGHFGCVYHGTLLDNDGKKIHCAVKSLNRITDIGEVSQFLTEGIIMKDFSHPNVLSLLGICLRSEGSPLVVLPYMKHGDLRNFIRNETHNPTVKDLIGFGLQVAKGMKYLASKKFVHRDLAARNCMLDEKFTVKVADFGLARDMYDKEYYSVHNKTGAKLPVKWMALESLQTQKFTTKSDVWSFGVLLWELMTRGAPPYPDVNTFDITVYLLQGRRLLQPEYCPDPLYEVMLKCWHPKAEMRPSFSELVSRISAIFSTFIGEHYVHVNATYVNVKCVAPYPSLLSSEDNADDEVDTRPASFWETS
UniProt P09619, 33-1106 limits assumed: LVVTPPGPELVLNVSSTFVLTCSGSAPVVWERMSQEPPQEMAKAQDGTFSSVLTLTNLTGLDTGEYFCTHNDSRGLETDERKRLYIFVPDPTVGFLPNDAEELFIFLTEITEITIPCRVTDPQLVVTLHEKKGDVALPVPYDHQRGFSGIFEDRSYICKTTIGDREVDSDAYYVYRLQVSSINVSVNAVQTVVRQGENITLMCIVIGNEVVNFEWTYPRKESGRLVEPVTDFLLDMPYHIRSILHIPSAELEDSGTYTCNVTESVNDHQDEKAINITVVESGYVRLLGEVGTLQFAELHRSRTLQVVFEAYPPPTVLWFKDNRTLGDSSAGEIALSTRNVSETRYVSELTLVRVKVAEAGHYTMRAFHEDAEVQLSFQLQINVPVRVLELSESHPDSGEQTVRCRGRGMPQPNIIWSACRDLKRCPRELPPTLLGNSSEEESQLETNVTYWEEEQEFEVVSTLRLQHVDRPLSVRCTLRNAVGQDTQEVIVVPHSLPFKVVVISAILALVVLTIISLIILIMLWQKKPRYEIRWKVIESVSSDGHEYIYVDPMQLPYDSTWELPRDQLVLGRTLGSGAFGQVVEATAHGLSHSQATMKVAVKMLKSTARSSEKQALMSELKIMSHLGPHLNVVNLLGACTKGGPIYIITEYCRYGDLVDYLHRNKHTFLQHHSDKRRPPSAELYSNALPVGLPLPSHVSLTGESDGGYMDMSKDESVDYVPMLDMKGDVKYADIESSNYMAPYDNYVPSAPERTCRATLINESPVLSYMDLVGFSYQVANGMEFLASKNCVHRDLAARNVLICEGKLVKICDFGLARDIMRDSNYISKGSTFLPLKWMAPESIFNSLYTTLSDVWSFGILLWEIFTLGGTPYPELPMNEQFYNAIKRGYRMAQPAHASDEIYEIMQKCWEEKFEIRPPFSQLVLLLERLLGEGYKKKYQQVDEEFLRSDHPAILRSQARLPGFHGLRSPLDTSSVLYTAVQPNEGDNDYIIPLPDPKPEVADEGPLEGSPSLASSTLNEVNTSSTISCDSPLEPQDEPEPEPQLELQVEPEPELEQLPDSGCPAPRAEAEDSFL
UniProt Q9Y243, whole entry: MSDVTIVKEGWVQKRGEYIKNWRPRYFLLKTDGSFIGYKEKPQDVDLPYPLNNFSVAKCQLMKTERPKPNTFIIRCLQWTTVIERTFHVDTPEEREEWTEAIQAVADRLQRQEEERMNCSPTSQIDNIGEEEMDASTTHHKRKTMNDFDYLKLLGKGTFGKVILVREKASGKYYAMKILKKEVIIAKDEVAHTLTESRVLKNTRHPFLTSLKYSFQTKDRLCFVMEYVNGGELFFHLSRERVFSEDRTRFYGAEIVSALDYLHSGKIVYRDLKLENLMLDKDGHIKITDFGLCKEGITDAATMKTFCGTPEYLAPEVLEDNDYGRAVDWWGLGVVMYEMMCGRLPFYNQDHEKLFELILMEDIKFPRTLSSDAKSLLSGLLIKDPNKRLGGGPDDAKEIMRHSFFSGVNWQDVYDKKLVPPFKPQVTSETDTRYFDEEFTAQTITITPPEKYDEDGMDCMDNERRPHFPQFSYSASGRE
UniProt P35968, 20-1356 limits assumed: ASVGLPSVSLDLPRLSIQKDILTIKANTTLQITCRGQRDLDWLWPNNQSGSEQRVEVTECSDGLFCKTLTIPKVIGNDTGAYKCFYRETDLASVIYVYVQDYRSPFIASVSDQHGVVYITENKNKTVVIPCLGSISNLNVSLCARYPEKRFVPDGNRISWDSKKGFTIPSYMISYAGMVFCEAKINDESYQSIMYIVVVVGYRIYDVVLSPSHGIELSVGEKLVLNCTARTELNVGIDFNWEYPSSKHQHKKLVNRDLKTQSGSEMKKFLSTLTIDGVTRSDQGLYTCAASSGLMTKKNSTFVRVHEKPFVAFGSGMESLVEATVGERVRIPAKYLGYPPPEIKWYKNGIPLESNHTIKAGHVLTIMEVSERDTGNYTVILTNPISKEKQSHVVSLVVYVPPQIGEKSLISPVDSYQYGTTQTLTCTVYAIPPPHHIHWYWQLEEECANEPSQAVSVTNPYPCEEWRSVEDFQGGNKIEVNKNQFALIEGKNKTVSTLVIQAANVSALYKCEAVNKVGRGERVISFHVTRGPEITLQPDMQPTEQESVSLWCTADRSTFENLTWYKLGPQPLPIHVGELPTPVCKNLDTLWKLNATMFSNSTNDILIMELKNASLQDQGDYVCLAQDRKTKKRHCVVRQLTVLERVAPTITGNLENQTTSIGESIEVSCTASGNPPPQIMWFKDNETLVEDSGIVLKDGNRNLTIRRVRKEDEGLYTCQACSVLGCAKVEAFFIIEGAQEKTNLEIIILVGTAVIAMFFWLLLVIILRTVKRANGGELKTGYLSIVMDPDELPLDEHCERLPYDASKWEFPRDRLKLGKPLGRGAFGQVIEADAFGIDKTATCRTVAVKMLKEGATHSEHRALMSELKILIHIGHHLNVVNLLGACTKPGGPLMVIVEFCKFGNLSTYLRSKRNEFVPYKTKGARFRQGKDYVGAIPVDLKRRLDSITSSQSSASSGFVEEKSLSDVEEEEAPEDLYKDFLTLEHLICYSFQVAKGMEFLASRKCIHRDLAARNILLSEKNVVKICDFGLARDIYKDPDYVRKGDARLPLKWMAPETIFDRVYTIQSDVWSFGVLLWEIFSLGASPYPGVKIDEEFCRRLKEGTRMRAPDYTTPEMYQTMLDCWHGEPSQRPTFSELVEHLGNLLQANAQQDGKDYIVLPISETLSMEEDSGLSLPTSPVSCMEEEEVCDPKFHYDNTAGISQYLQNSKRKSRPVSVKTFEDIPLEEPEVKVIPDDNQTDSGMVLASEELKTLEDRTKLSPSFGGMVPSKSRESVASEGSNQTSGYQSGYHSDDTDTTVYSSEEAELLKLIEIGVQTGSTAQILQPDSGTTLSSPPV
UniProt P06241, whole entry: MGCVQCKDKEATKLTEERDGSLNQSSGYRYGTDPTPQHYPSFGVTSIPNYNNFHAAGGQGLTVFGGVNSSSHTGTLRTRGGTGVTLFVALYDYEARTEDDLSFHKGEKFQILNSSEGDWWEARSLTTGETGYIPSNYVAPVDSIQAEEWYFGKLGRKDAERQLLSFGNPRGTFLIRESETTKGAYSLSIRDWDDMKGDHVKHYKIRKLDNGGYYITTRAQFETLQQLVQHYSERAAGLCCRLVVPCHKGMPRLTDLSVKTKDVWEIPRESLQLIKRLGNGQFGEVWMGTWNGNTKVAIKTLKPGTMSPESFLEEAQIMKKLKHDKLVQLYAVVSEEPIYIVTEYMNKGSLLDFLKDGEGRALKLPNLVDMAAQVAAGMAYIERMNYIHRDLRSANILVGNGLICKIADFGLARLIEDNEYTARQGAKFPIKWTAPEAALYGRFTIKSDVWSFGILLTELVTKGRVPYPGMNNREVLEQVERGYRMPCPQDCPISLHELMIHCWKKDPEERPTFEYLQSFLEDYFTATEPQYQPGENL

The target of one assay is EGFR (Homo sapiens, UniProt P00533). Nature of the assay: Kinase inhibition assay (33P transfer), EGFR. Type of assay: biochemical.
A further assay has as its target Lck (Homo sapiens, UniProt P06239). Nature of the assay: Kinase inhibition assay (33P transfer), Lck. Type of assay: biochemical.
The target in another assay is Zap-70 (Homo sapiens, UniProt P43403). The experiment in a line: Kinase inhibition assay (33P transfer), Zap-70. Type of assay: biochemical.
The next assay addresses Itk (Homo sapiens, UniProt Q08881). Nature of the assay: Kinase inhibition assay (33P transfer), Itk. Format: biochemical.
The next assay has as its target c-Met (Homo sapiens, UniProt P08581). Nature of the assay: Kinase inhibition assay (33P transfer), c-Met. Type of assay: biochemical.
The next assay addresses PDGFRB (Homo sapiens, UniProt P09619). Nature of the assay: Kinase inhibition assay (33P transfer), PDGFRB. Format: biochemical.
Assay [1] has as its target T1, IGFR-1 (Homo sapiens, UniProt P08069). The experiment in a line: Kinase inhibition assay, IGFR-1 (Table 2). Format: biochemical. Particulars: Table 2, kinase inhibition class.
The next assay deals with AKT (Homo sapiens, UniProt Q9Y243). The experiment in a line: Kinase inhibition assay (33P transfer), AKT.
The target in a further assay is Tek (Homo sapiens, UniProt Q02763). The experiment in a line: Kinase inhibition assay (33P transfer), Tek.
The next assay deals with Kdr (Homo sapiens, UniProt P35968). The experiment in a line: Kinase inhibition assay (33P transfer), Kdr. Format: biochemical.
A further assay deals with ErbB2 (Homo sapiens, UniProt P04626). Nature of the assay: Kinase inhibition assay (33P transfer), ErbB2.
Assay [2] concerns the target T1, IGFR-1. Nature of the assay: Kinase inhibition assay (33P transfer), IGFR-1. Format: biochemical.
For the next assay, the target named is FGFR1 (Homo sapiens, UniProt P11362). The experiment in a line: Kinase inhibition assay (33P transfer), FGFR1. Format: biochemical.
The next assay addresses Src (Homo sapiens, UniProt P12931). The experiment in a line: Kinase inhibition assay (33P transfer), Src. Particulars: Table 6, Src-1 kinase inhibition class.
Another assay deals with Flt-1 (Homo sapiens, UniProt P17948). The experiment in a line: Kinase inhibition assay (33P transfer), Flt-1. Format: biochemical.
In another assay the target is Hck-1 (Homo sapiens, UniProt P08631). Nature of the assay: Kinase inhibition assay (33P transfer), Hck. Type of assay: biochemical. Particulars: Table 6, Hck-1 kinase inhibition class.
The next assay deals with Lyn (Homo sapiens, UniProt P07948). The experiment in a line: Kinase inhibition assay (33P transfer), Lyn. Particulars: Table 6, Lyn-1 kinase inhibition class.
A further assay concerns the target Ret-1 (Homo sapiens, UniProt P07949). Nature of the assay: Kinase inhibition assay (33P transfer), Ret. Particulars: Table 6, Ret-1 kinase inhibition class. Type of assay: biochemical.
For the next assay, the target named is Fyn (Homo sapiens, UniProt P06241). The experiment in a line: Kinase inhibition assay (33P transfer), Fyn. Type of assay: biochemical.
The target of a further assay is ErbB4 (Homo sapiens, UniProt Q15303). Nature of the assay: Kinase inhibition assay (33P transfer), ErbB4. Format: biochemical.
In a further assay the target is EPHB4 (Homo sapiens, UniProt P54760). Nature of the assay: Kinase inhibition assay (33P transfer), EPHB4. Format: biochemical.
Where [3] appears, read: Table 2, kinase inhibition class.

Read-outs that look alike come from different tables or passages of the source.

Regarding `COc1ccc(Nc2ncnc(-n3c(N)nc4ccccc43)n2)cc1OCCN1CCOCC1`, the EGFR-1 result on EGFR (setting [3]) is recorded as “E (E>4.5 ug/mL)”. For the same molecule, the Lck-1 result on Lck was “B (B>0.4 and <2.4 ug/mL)”. The Zap-1 result on Zap-70 is listed as “E (E>4.5 ug/mL)”. For the same molecule, the Itk-1 result on Itk is “D (D>3.5 and <4.5 ug/mL)”. For the same molecule, at c-Met (setting [3]), the Met-1 result is listed as “E (E>4.5 ug/mL)”. Besides, the PDGFRB-1 entry on PDGFRB is “B (B>0.4 and <2.4 ug/mL)”. At IGFR-1 [1], the IGFR-1 result was “B (B>0.4 and <2.4 ug/mL)”. Besides, the AKT3-1 entry at AKT (setting [3]) is listed as “E (E>4.5 ug/mL)”. The Tek-1 entry on Tek is “B (B>0.4 and <2.4 ug/mL)”.

For `CCN(CC)CCCNc1cc(-c2ncnc(Nc3cc(OC)c(OC)c(OC)c3)n2)ccn1`, on EGFR (setting [3]), the EGFR-1 result is recorded as “E (E>4.5 ug/mL)”. In addition, on Lck (Table 3), the Lck-1 entry is “E (E>4.5 ug/mL)”. In addition, the Zap-1 result at Zap-70 (Table 3) is reported as “E (E>4.5 ug/mL)”. In addition, the Itk-1 entry on Itk (Table 3) was “E (E>4.5 ug/mL)”. Further, the Met-1 entry on c-Met (setting [3]) was “E (E>4.5 ug/mL)”. At Kdr (Table 3), the KDR-1 entry was “E (E>4.5 ug/mL)”. In addition, at AKT (setting [3]), the AKT3-1 result is on record as “E (E>4.5 ug/mL)”.

Turning to `COc1cc(Nc2ncnc(NC(C)c3ccccc3)n2)cc(OC)c1OC` (stereo not drawn), the Zap-1 result at Zap-70 is listed as “E (E>4.5 ug/mL)”. At Itk, the Itk-1 entry is listed as “E (E>4.5 ug/mL)”. In addition, the Met-1 entry on c-Met (setting [3]) was “E (E>4.5 ug/mL)”. Further, the KDR-1 result at Kdr was “E (E>4.5 ug/mL)”. Further, at AKT (setting [3]), the AKT3-1 entry is “E (E>4.5 ug/mL)”.

For `CN(c1cccc(Cl)c1)c1ncnc(Nc2ccc3c(cnn3Cc3ccccc3)c2)n1`, at EGFR (Table 2, class symbols A-E), the EGFR-1 result was “B (B>0.4 and <2.4 ug/mL)”. In addition, the ErbB2-2 entry on ErbB2 is “D (D>3.5 and <4.5 ug/mL)”. Also, on Lck (Table 3, class symbols), the Lck-1 entry is given as “E (E>4.5 ug/mL)”. Further, the Zap-1 result at Zap-70 (Table 3, class symbols) is “E (E>4.5 ug/mL)”. Further, on Itk (Table 3, class symbols), the Itk-1 entry was “E (E>4.5 ug/mL)”. Further, at c-Met (Table 2, class symbols A-E), the Met-1 entry is on record as “E (E>4.5 ug/mL)”. Further, the PDGFRB-1 result on PDGFRB is “C (C>2.4 and <3.5 ug/mL)”. On Kdr (Table 3, class symbols), the KDR-1 result is given as “E (E>4.5 ug/mL)”. Further, the AKT3-1 result on AKT (Table 2, class symbols A-E) is “E (E>4.5 ug/mL)”. For the same molecule, at IGFR-1 [2] (Table 2, class symbols A-E), the IGFR-1 result is “E (E>4.5 ug/mL)”.

As for `Fc1ccc(Nc2ncnc(Cl)n2)cc1Cl`, on EGFR (setting [3]), the EGFR-1 result is recorded as “E (E>4.5 ug/mL)”. Further, the ErbB2-2 entry on ErbB2 is “E (E>4.5 ug/mL)”. Also, the Lck-1 result at Lck is given as “E (E>4.5 ug/mL)”. Further, on Zap-70, the Zap-1 result is recorded as “E (E>4.5 ug/mL)”. At Itk, the Itk-1 result is “E (E>4.5 ug/mL)”. Besides, at c-Met (setting [3]), the Met-1 result is recorded as “E (E>4.5 ug/mL)”. Besides, at PDGFRB, the PDGFRB-1 entry is recorded as “E (E>4.5 ug/mL)”. The KDR-1 entry at Kdr is listed as “E (E>4.5 ug/mL)”. In addition, at IGFR-1 [1], the IGFR-1 entry is “E (E>4.5 ug/mL)”. Further, the AKT3-1 result on AKT (setting [3]) is recorded as “E (E>4.5 ug/mL)”.

For `COc1cc(Nc2ncnc(-c3cccnc3NCc3ccccc3)n2)cc(OC)c1OC`, the EGFR-1 result on EGFR (setting [3]) is given as “E (E>4.5 ug/mL)”. The ErbB2-2 entry on ErbB2 is reported as “E (E>4.5 ug/mL)”. The Lck-1 result on Lck is “B (B>0.4 and <2.4 ug/mL)”. For the same molecule, on Zap-70, the Zap-1 entry is “E (E>4.5 ug/mL)”. Further, the FGFR1-1 result at FGFR1 is listed as “A (A<0.4 ug/mL)”. The Itk-1 entry on Itk is listed as “E (E>4.5 ug/mL)”. Further, the Met-1 entry on c-Met (setting [3]) was “E (E>4.5 ug/mL)”. The PDGFRB-1 result on PDGFRB is reported as “A (A<0.4 ug/mL)”. In addition, the KDR-1 result at Kdr is reported as “A (A<0.4 ug/mL)”. Also, on Src, the Src-1 entry was “D (D>3.5 and <4.5 ug/mL)”. Moreover, the Flt-1 result on Flt-1 is listed as “A (A<0.4 ug/mL)”. The IGFR-1 result on IGFR-1 [1] was “E (E>4.5 ug/mL)”. For the same molecule, on AKT (setting [3]), the AKT3-1 entry is recorded as “E (E>4.5 ug/mL)”. On Hck-1, the Hck-1 result was “E (E>4.5 ug/mL)”. Besides, the Lyn-1 entry on Lyn is “B (B>0.4 and <2.4 ug/mL)”. The Tek-1 result on Tek is “E (E>4.5 ug/mL)”. Moreover, on Ret-1, the Ret-1 entry is “A (A<0.4 ug/mL)”. Moreover, the Fyn-1 entry at Fyn is “E (E>4.5 ug/mL)”. The ErbB4-1 result on ErbB4 is listed as “E (E>4.5 ug/mL)”.

Regarding `COc1cc(Nc2ncnc(Nc3ccc(N4CCCCC4)cc3)n2)cc(OC)c1OC`, the EGFR-1 entry on EGFR (setting [3]) is “B (B>0.4 and <2.4 ug/mL)”. For the same molecule, on Lck (Table 3), the Lck-1 entry is “C (C>2.4 and <3.5 ug/mL)”. In addition, the Zap-1 result at Zap-70 (Table 3) was “C (C>2.4 and <3.5 ug/mL)”. Further, on FGFR1, the FGFR1-1 result is “E (E>4.5 ug/mL)”. Moreover, the EPHB4-1 result at EPHB4 is given as “E (E>4.5 ug/mL)”. The Itk-1 entry at Itk (Table 3) is given as “E (E>4.5 ug/mL)”. For the same molecule, on c-Met (setting [3]), the Met-1 result was “B (B>0.4 and <2.4 ug/mL)”. Further, the PDGFRB-1 result on PDGFRB is “E (E>4.5 ug/mL)”. Moreover, the KDR-1 result on Kdr (Table 3) is recorded as “A (A<0.4 ug/mL)”. Besides, the Src-1 result at Src is “E (E>4.5 ug/mL)”. For the same molecule, the Flt-1 entry at Flt-1 was “D (D>3.5 and <4.5 ug/mL)”. For the same molecule, the AKT3-1 result on AKT (setting [3]) is “B (B>0.4 and <2.4 ug/mL)”. In addition, the Hck-1 entry at Hck-1 was “E (E>4.5 ug/mL)”. In addition, the Lyn-1 entry at Lyn is “B (B>0.4 and <2.4 ug/mL)”. Further, on Tek, the Tek-1 result is listed as “E (E>4.5 ug/mL)”. Also, the Ret-1 entry at Ret-1 is recorded as “E (E>4.5 ug/mL)”. In addition, at Fyn, the Fyn-1 result is on record as “E (E>4.5 ug/mL)”. Further, the IGFR-1 result at IGFR-1 [2] (setting [3]) is recorded as “E (E>4.5 ug/mL)”.
